Results taken from US9340537B2, “Benzamide derivatives for inhibiting the activity of ABL1, ABL2 and BCR-ABL1” (NOVATIS AG, priority 2012, dated 2016).

By UniProt entry, the sequences of proteins in these tests, tags left out. Residues count along the entry.
UniProt P00519, 64-515: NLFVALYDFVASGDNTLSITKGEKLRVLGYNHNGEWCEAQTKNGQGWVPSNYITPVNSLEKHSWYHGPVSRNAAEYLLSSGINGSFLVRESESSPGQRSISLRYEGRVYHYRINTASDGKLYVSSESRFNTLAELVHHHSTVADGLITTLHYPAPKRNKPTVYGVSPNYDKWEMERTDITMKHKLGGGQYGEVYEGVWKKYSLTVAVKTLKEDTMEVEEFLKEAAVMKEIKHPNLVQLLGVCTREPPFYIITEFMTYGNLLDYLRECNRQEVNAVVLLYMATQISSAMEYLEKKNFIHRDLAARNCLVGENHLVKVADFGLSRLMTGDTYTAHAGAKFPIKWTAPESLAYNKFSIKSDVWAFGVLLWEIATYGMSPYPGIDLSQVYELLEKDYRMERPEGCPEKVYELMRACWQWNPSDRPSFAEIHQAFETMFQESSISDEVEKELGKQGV

Tests used:
[1] = biological target: ABL1 (64-515) (Homo sapiens (Human), UniProt P00519); experiment: Caliper ABL1 (64-515) microfluidic mobility shift kinase assay; conditions: read-out: Caliper ABL1 (64-515) IC50
[2] = test system: BCR-ABL1+KCL-22 cells; experiment: Acquired resistance in BCR-ABL1+KCL-22 cells in vitro; format: cell-based; conditions: single agent, cells treated every 3-4 days

Structure (SMILES)	IC50 [1]	time until acquired resistance [2]
N[C@]1(C(F)(F)F)CCN(c2ncc(C(=O)Nc3ccc(OC(F)(F)F)cc3)cc2-c2ccn[nH]2)C1 [Example 32, (R)-6-(3-Amino-3-(trifluoromethyl)pyrrolidin-1-yl)-5-(1H-pyrazol-5-yl)-N-(4-(trifluoromethoxy)phenyl)nicotinamide]	4.1 nM	–
Cc1nc(Nc2ncc(C(=O)Nc3c(C)cccc3Cl)s2)cc(N2CCN(CCO)CC2)n1 [dasatinib]	–	18 to 21 days
